Consider one protein from publication PMC7699480 (Cancers, 2020).

The data set deals with the molecule itself. In words: electrophoresis on a bioanalyzer; purified Cys-∆N-SpyCatcher under non-reducing conditions; dimer through the added cysteine; reducing conditions gave a major 15.2 kDa (87%) peak.

B1: Cys-∆N-SpyCatcher (designed binder)
chain: CDSATHIKFSKRDEDGKELAGATMELRDSSGKTISTWISDGQVKDFYLYPGKYTFVETAAPDGYEVATAITFTVNEQGQVTVNGKATKGDAHI
By stoichiometry N is commonly meant a count of units in the complex or per binding partner. With B1, the “stoichiometry N” value was 2.
